System: rats
Test: Activity level tests (10 minute session)
Settings: 2 mg/kg (200 standard units); 10 minute period one hour after injection; FIGS. 10-13

C[C@H](N)Cc1ccccc1 [S-(+)amphetamine]
activity levels (total distance, total movement, rest time, rearing) versus saline control: higher levels of activity on all of the activity tests

From US20020161002A1, “Use of catecholamine reuptake inhibitors to enhance memory” (priority 2001, published 2002)
